Publication PMC7607171, “Optimized low‐dose combinatorial drug treatment boosts selectivity and efficacy of colorectal carcinoma treatment” (Molecular Oncology, 2020)
“And” between values parts separate entries of the source, which are not always exact repeats. Equal values may be shown once.

How the values were obtained:
[1] = Clinical plasma pharmacokinetics in patients, plasma concentration limit calculation; format: in vivo; details: average plasma concentration calculated from AUC0-24h in patients
Protocol: To select for clinically relevant doses, the clinically attainable drug concentration measured in the blood plasma of patients after treatment is used to calculate the concentration limit for in vitro experiments. […] The average drug concentration is calculated from the AUC0–24h and is implemented as the plasma concentration limit (PCL) which drug dose selection must remain below for in vitro experiments. If a drug is FDA approved, the AUC0–24h selected is the one corresponding to the recommended dose in clinical practice. If a drug is in clinical trials, the AUC0–24h selected is the one corresponding to the maximum tolerated dose in early stage clinical trials. Note, experiments were conducted with the most current PCL calculated from the AUC0–24h information available at the start of experiments (December 2017), see Table S4.

[2] = 0-12h; 120 mg/kg twice daily, oral; cited from earlier work

AZD-4547
PCL (plasma concentration limit) [1]: 0.37 µM and 0.4 µM
AUC [2]: 2058(0-12h) µg*h/L [24]
